Reference: publication PMC6587507, “Comparison of the metabolism of 10 chemicals in human and pig skin explants” (Journal of Applied Toxicology, 2018)

Assays:
[1] = tested on: human abdominal skin explants; settings: cinnamyl alcohol applied to human skin
Procedure: (§1) Human abdominal skin was obtained (with consent for research from a commercial supplier [L’Union Clinic, Rangueil hospital and Icelltis, Toulouse, France] with certified ethical procedures) from six male and 34 female healthy donors, 41 ± 11 years of age, undergoing cosmetic surgery. Abdominal skin was kept at 4°C during transports and placed in culture within 3 hours of surgery. Pig ear skin was a waste product of the meat industry (without hot steam treatment) from domestic pigs (female Pietrain breed, 6 months old, 80‐100 kg) obtained from a local slaughterhouse (Montauban, France). Ears were taken from the animals within 5 minutes of slaughter and were kept at 4°C during transport to the laboratory, which lasted a maximum of 2 hours. Pig skin samples were dried and then gently shaved.
(§2) The experiment and the preparation of the culture medium were performed under sterile conditions. […]
(§3) The dosing volume was 10 μL/cm^2. […] The metabolite profiles for the 48‐hour timepoint are not reported here since humans skin metabolism was measured at 24 hours only; however, for completeness, the distribution of radioactivity at the end of both pig (48 hours) and human (24 hours) skin incubations is reported. […]
(§4) After centrifugation, a 100 μL aliquot of the extract was counted by liquid scintillation. The pellet was dissolved in 3 mL Soluable (60°C, 24 hours) and then counted by liquid scintillation. […]

[2] = tested on: pig ear skin explants; settings: cinnamyl alcohol applied to pig skin
Procedure: as §1, §2, §3, §4

- Amount of metabolite in the medium after 24 h [1]: 0.5 ± 0.1 % Applied dose
- Amount of metabolite in the medium after 24 h [2]: 1.0 ± 0.3 % Applied dose
Substance: cinnamic acid glucuronide [VII (cinnamic acid glucuronide)]
